Reference: patent publication US9751831B2, “Blood brain barrier-penetrating oximes for cholistenerases reactivation” (dated 2017)

Amino acid sequences for entries named in this document (tags omitted). A change or cut given only in a name is not applied to a line headed by its entry. Residues count along the entry.
UniProt P22303: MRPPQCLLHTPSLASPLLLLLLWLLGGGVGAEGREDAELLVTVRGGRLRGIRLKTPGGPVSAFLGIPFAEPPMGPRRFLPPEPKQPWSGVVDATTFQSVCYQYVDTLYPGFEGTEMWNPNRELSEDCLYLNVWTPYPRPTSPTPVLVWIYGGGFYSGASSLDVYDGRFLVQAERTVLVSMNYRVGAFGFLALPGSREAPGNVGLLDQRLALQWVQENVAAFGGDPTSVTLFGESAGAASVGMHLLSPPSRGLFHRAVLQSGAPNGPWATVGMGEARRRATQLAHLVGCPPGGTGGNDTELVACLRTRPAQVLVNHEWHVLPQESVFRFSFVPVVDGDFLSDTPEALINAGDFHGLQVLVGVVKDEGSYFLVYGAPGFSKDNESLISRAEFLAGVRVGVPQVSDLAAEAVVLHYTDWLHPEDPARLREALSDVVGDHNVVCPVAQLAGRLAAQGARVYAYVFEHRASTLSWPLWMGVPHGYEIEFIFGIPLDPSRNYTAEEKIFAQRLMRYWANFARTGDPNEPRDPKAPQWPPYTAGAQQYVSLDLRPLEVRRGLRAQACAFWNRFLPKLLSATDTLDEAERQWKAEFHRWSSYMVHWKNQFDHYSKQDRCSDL
UniProt P06276, 29-602 limits assumed: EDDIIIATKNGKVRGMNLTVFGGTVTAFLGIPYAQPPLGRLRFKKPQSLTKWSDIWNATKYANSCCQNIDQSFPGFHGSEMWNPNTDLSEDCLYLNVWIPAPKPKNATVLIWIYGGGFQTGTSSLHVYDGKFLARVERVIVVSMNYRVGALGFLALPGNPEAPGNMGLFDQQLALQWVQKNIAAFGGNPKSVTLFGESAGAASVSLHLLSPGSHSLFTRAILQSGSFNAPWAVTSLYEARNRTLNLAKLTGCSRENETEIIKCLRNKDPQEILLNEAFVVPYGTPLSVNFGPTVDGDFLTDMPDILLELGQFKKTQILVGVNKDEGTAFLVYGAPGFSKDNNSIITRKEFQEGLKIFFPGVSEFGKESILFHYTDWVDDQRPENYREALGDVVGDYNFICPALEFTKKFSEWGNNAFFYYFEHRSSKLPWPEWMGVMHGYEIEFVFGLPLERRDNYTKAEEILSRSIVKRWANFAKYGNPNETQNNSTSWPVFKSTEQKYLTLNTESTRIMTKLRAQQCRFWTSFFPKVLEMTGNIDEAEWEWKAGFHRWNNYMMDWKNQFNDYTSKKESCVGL

Tests used:
hAChE = hAChE (Homo sapiens, UniProt P22303); assay: Reactivation of OP (nerve agent model compound)-inhibited hAChE, modified Ellman's assay; conditions: for Relative reactivation, AChE, Sp-GB / Relative reactivation, AChE, Sp-GF / Relative reactivation, AChE, Sp-GA/ETP: mean ± standard deviation; for Reactivation of Sp-GBC-inhibited ChEs, Relative activity [%], hAChE / Reactivation of Sp-GF-SMe-inhibited ChEs, Relative activity [%], hAChE: 100 μM oxime, relative to sample not treated with OP, 20 min per footnote (1 h)
hBuChE = hBuChE (Homo sapiens, UniProt P06276); assay: Reactivation of OP (nerve agent model compound)-inhibited hBuChE, modified Ellman's assay; conditions: for Relative reactivation, BChE, Sp-GB / Relative reactivation, BChE, Sp-GF / Relative reactivation, BChE, Sp-GA/ETP: mean ± standard deviation; for Reactivation of Sp-GBC-inhibited ChEs, Relative activity [%], hBuChE / Reactivation of Sp-GF-SMe-inhibited ChEs, Relative activity [%], hBuChE: 100 μM oxime, 20 min incubation, relative to sample not treated with OP
[1] = Table 4, Sp-GB (sarin model)-inhibited hAChE
[2] = Table 4, Sp-GF (cyclosarin model)-inhibited hAChE
[3] = Table 4, tabun model (Sp-GA)/Echothiophate-inhibited hAChE
[4] = Table 4, Sp-GB (sarin model)-inhibited hBChE
[5] = Table 4, Sp-GF (cyclosarin model)-inhibited hBChE
[6] = Table 4, tabun model (Sp-GA)/Echothiophate-inhibited hBChE
[7] = Table 5, Sp-GA/ETP-inhibited hBChE
[8] = Table 5, Sp-GA/ETP-inhibited hAChE

## 2-(Hydroxyimino)-N′-(2-methoxyethyl)-N,N-dimethyl-acetimid-amide hydrochloride salt
hAChE; [1]
  Relative reactivation, AChE, Sp-GB: 0.20 ± 0.01
hAChE; [2]
  Relative reactivation, AChE, Sp-GF: 0.03 ± 0
hAChE; [3]
  Relative reactivation, AChE, Sp-GA/ETP: 0.08 ± 0.03
hBuChE; [4]
  Relative reactivation, BChE, Sp-GB: 0.51 ± 0.04
hBuChE; [5]
  Relative reactivation, BChE, Sp-GF: 0.33 ± 0.01
hBuChE; [6]
  Relative reactivation, BChE, Sp-GA/ETP: 0.07 ± 0.02

## Cl.ON=CC1=NCCN1Cc1ccccc1
hBuChE
  Reactivation of Sp-GBC-inhibited ChEs, Relative activity [%], hBuChE: 61%
  Reactivation of Sp-GF-SMe-inhibited ChEs, Relative activity [%], hBuChE: 90%

## N′-Cyclobutyl-2-(hydroxyimino)-N,N-dimethylacetimid-amide hydrochloride salt
hAChE; [1]
  Relative reactivation, AChE, Sp-GB: 0.51 ± 0.04
hAChE; [2]
  Relative reactivation, AChE, Sp-GF: 0.12 ± 0.01
hAChE; [3]
  Relative reactivation, AChE, Sp-GA/ETP: 0.17 ± 0.02
hBuChE; [4]
  Relative reactivation, BChE, Sp-GB: 0.86 ± 0.05
hBuChE; [5]
  Relative reactivation, BChE, Sp-GF: 0.58 ± 0.04
hBuChE; [6]
  Relative reactivation, BChE, Sp-GA/ETP: 0.14 ± 0.01

## N′-Benzyl-2-(hydroxyimino)-N,N-dimethylacetimidamide hydro-chloride salt
hAChE
  Reactivation of Sp-GBC-inhibited ChEs, Relative activity [%], hAChE: 6%
  Reactivation of Sp-GF-SMe-inhibited ChEs, Relative activity [%], hAChE: 2%
hAChE; [1]
  Relative reactivation, AChE, Sp-GB: 0.15 ± 0.01
hAChE; [2]
  Relative reactivation, AChE, Sp-GF: 0.05 ± 0.01
hAChE; [3]
  Relative reactivation, AChE, Sp-GA/ETP: 0.11 ± 0.01
hBuChE
  Reactivation of Sp-GBC-inhibited ChEs, Relative activity [%], hBuChE: 47%
  Reactivation of Sp-GF-SMe-inhibited ChEs, Relative activity [%], hBuChE: 78%
hBuChE; [4]
  Relative reactivation, BChE, Sp-GB: 0.47 ± 0.05
hBuChE; [5]
  Relative reactivation, BChE, Sp-GF: 0.78 ± 0.03
hBuChE; [6]
  Relative reactivation, BChE, Sp-GA/ETP: 0.04 ± 0

## 2-(Hydroxyimino)-N,N-dimethyl-N′-propylacetimidamide hydro-chloride
hAChE
  Reactivation of Sp-GBC-inhibited ChEs, Relative activity [%], hAChE: 23%
  Reactivation of Sp-GF-SMe-inhibited ChEs, Relative activity [%], hAChE: 7%
hAChE; [1]
  Relative reactivation, AChE, Sp-GB: 0.51 ± 0.05
hAChE; [2]
  Relative reactivation, AChE, Sp-GF: 0.09 ± 0.01
hAChE; [3]
  Relative reactivation, AChE, Sp-GA/ETP: 0.34 ± 0.03
hBuChE
  Reactivation of Sp-GBC-inhibited ChEs, Relative activity [%], hBuChE: 92%
  Reactivation of Sp-GF-SMe-inhibited ChEs, Relative activity [%], hBuChE: 89%
hBuChE; [4]
  Relative reactivation, BChE, Sp-GB: 0.98 ± 0.05
hBuChE; [5]
  Relative reactivation, BChE, Sp-GF: 1.02 ± 0.11
hBuChE; [6]
  Relative reactivation, BChE, Sp-GA/ETP: 0.26 ± 0

## 2-(Hydroxyimino)-N,N-dimethyl-N′-pentylacetimidamide hydro-chloride salt
hAChE; [1]
  Relative reactivation, AChE, Sp-GB: 0.42 ± 0.03
hAChE; [2]
  Relative reactivation, AChE, Sp-GF: 0.11 ± 0.01
hAChE; [3]
  Relative reactivation, AChE, Sp-GA/ETP: 0.30 ± 0.01
hBuChE; [4]
  Relative reactivation, BChE, Sp-GB: 0.84 ± 0.01
hBuChE; [5]
  Relative reactivation, BChE, Sp-GF: 0.86 ± 0.11
hBuChE; [6]
  Relative reactivation, BChE, Sp-GA/ETP: 0.11 ± 0.04

## Cl.ON=CC1=NCCCN1Cc1ccc(Cl)cc1Cl
hBuChE; [7]
  Relative reactivation, BChE, Sp-GA/ETP: 0.34 ± 0.07
hBuChE; Table 5, Sp-GB-inhibited hBChE
  Relative reactivation, BChE, Sp-GB: 0.86 ± 0.01
hBuChE; Table 5, Sp-GF-inhibited hBChE
  Relative reactivation, BChE, Sp-GF: 0.80 ± 0.13

## 1-Butyl-4,5-dihydro-1H-imidazole-2-carbaldehyde oxime hydro-chloride
hAChE; [8]
  Relative reactivation, AChE, Sp-GA/ETP: 0.29 ± 0.01
hAChE; Table 5, Sp-GB-inhibited hAChE
  Relative reactivation, AChE, Sp-GB: 0.60 ± 0.1
hAChE; Table 5, Sp-GF-inhibited hAChE
  Relative reactivation, AChE, Sp-GF: 0.21 ± 0.02
hBuChE; [7]
  Relative reactivation, BChE, Sp-GA/ETP: 0.08 ± 0.03
hBuChE; Table 5, Sp-GB-inhibited hBChE
  Relative reactivation, BChE, Sp-GB: 0.46 ± 0.02
hBuChE; Table 5, Sp-GF-inhibited hBChE
  Relative reactivation, BChE, Sp-GF: 0.76 ± 0.08

## CC(C)CCN=C(C=NO)N(C)C.Cl
hBuChE; [4]
  Relative reactivation, BChE, Sp-GB: 0.55 ± 0.04
hBuChE; [5]
  Relative reactivation, BChE, Sp-GF: 0.84 ± 0.12
hBuChE; [6]
  Relative reactivation, BChE, Sp-GA/ETP: 0.06 ± 0.01

## CN(C)C(C=NO)=Nc1ccccc1.Cl
hBuChE
  Reactivation of Sp-GBC-inhibited ChEs, Relative activity [%], hBuChE: 79%
  Reactivation of Sp-GF-SMe-inhibited ChEs, Relative activity [%], hBuChE: 73%
hBuChE; [4]
  Relative reactivation, BChE, Sp-GB: 0.79 ± 0.04
hBuChE; [5]
  Relative reactivation, BChE, Sp-GF: 0.73 ± 0.03
hBuChE; [6]
  Relative reactivation, BChE, Sp-GA/ETP: 0.18 ± 0.01

## N′-Cyclopropyl-2-(hydroxyimino)-N,N-dimethylacetimid-amide hydrochloride salt
hAChE; [1]
  Relative reactivation, AChE, Sp-GB: 0.61 ± 0.04
hAChE; [2]
  Relative reactivation, AChE, Sp-GF: 0.11 ± 0.01
hAChE; [3]
  Relative reactivation, AChE, Sp-GA/ETP: 0.15 ± 0.01
hBuChE; [4]
  Relative reactivation, BChE, Sp-GB: 0.73 ± 0.05
hBuChE; [5]
  Relative reactivation, BChE, Sp-GF: 0.56 ± 0.03
hBuChE; [6]
  Relative reactivation, BChE, Sp-GA/ETP: 0.13 ± 0.03

## 1-(3,5-Bis(trifluoromethyl)benzyl)-1,4,5,6-tetrallydropyrimidine-2-carbaldehyde oxime hydrochloride
hAChE; [8]
  Relative reactivation, AChE, Sp-GA/ETP: 0.33 ± 0.01
hAChE; Table 5, Sp-GB-inhibited hAChE
  Relative reactivation, AChE, Sp-GB: 0.22 ± 0.01
hAChE; Table 5, Sp-GF-inhibited hAChE
  Relative reactivation, AChE, Sp-GF: 0.22 ± 0.01
hBuChE; [7]
  Relative reactivation, BChE, Sp-GA/ETP: 0.32 ± 0.03
hBuChE; Table 5, Sp-GB-inhibited hBChE
  Relative reactivation, BChE, Sp-GB: 1.02 ± 0.02
hBuChE; Table 5, Sp-GF-inhibited hBChE
  Relative reactivation, BChE, Sp-GF: 1.09 ± 0.20
